By UniProt entry, the sequences of proteins in these tests, tags left out. Where a name states a change or a piece, a line headed by the entry shows the natural chain unless it says otherwise.
UniProt P0AF12: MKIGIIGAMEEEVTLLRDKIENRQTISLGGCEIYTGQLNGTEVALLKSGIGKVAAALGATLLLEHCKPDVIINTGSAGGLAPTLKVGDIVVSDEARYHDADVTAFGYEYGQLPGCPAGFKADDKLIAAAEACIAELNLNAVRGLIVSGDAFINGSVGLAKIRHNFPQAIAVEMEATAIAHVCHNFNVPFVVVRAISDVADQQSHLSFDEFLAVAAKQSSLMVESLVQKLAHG

According to US9957272B2, “3-hydroxypyrrolidine inhibitors of 5′-methylthioadenosine phosphorylase and nucleosidase” (priority 2009, dated 2018):

Target: T1, E. coli MTAN (Escherichia coli, UniProt P0AF12)
T1 construct: made in house
Type: biochemical
Protocol: After removal of cell debris by centrifugation, the soluble cell lysates are loaded onto nickel-charged chelating Sepharose (GE Healthcare) and washed with lysis buffer containing 20-150 mM imidazole. The 6His-MTANs are eluted in 250 mM imidazole, desalted using a Sephadex G-15 (GE Healthcare) gel filtration column, equilibrated with low salt buffer (100 mM HEPES, 30 mM KCL, pH 7.6) and concentrated to 40 mg/mL.
Briefly, all experiments are carried out at 25° C., in 1 mL total reaction volume containing 100 mM HEPES buffer, pH 7.5 and 50 mM KCl with 5′-deoxymethylthioadenosine (MTA) as substrate. […] For measuring dissociation constant (Kd) of inhibitors, a xanthine oxidase-coupled assay is carried out. […] Control experiments are carried out in the absence of either inhibitor or MTAN.
[formula] where vs^t and vs are steady state rates in the presence, and absence of inhibitor, respectively; Km is substrate Michaelis constant which is obtained as described above; [S] and [I] are the concentrations of the substrate MTA and inhibitor, respectively. If the concentration of inhibitor is smaller than 10-fold concentration of enzymes, the following correction is then applied: r=I′−(1−v0′/v0)Et
All data fitting is carried out with KaleidaGraph™ ver. 3.5 (Synergy Software).

Compound	Selectivity for bacterial MTAN
Nc1ncnc2c(CN3C[C@@H](O)[C@H](c4c[nH]nn4)C3)c[nH]c12 (racemic) [Example 15, (±)-trans-1-[(9-Deaza-adenin-9-yl)methyl]-3-hydroxy-4-(1H-1,2,3-triazol-4-yl)pyrrolidine]	some selectivity for bacterial MTAN
Nc1ncnc2c(CN3C[C@@H](O)[C@H](c4cn(Cc5ccccc5)nn4)C3)c[nH]c12 (racemic) [Example 14, (±)-trans-4-(1-Benzyl-1H-1,2,3-triazol-4-yl)-1[(9-deaza-adenin-9-yl)methyl]-3-hydroxypyrrolidine]	some selectivity for bacterial MTAN
